Measurements taken from patent publication EP4825379A1, “USE OF 1-(3-AMINOPROPYL) SUBSTITUTED CYCLIC AMINE COMPOUND” (dated 2026).

Assays:
[1] = system: Autoimmune encephalomyelitis (EAE); experiment: Onset of multiple sclerosis in vivo: daily clinical score and weight in the EAE model; details: 50 mg/kg daily, intraperitoneal injection or gavage, vs saline control, Figure 1
Experimental: Autoimmune encephalomyelitis (EAE) was an animal model of multiple sclerosis. In this experiment, behavioral scores and weight assessments were performed on two groups of mice daily until the end of the experiment to investigate the effect of compound DC521022 on the onset of multiple sclerosis.
Experimental animals: C57/BL6 mice, 10 weeks old, female, randomly divided into experimental group and control group: model control group (EAE + Vehicle): administered saline after modeling; model administration group (EAE + DC521022): administered DC521022 suspension after modeling. […]
Animal experiment method: mouse polypeptide antigen MOG35-55 (purity>95%) was repeatedly mixed with complete Freund's adjuvant containing inactivated Mycobacterium tuberculosis in a syringe for emulsification to form a water in oil state. […] After the animal experiment was completed, the mice's condition was observed daily, and clinical scoring was performed and recorded. […]
Experimental method: after modeling, DC521022 suspension was immediately administered via intraperitoneal injection and gavage on the day of immunization and the first day of disease onset, respectively. […] Administration was repeated daily, and the mice's condition was observed and clinically scored until Day 14 and Day 28 after modeling. […]

[2] = system: bone marrow hematopoietic stem cells; experiment: Myeloid skewing in the bone marrow of EAE mice, flow cytometry; details: Day 14 and Day 28, Figure 4
Experimental: In this experiment, flow cytometry was used to investigate the myeloid skewing in the bone marrow of mice in each group of the model on days 14 and 28 of the experiment after treatment with compound DC521022.
Preparation of brain tissue single-cell suspension: mice were deeply anesthetized by intraperitoneal injection of tribromoethanol and properly fixed. The left femur of the mice was taken and soaked in ice-cold PBS for later use. The bone marrow of femur of mice was blown into a 15 mL centrifuge tube, centrifuged at 350 G for 5 min, and the supernatant was discarded. 1 mL of erythrocyte lysis buffer was added, and lysis was carried out for 6 min. Then lysis was terminated by adding 5 mL of PBS, and it was centrifuged at 350 G for 5 min, and then resuspended in 1 mL of PBS. Cells were counted.
The following channels were selected for the color matching of fluorescent dyes used in flow cytometry antibody staining: fluorescein isothiocyanate (FITC), Phycoerythrin (PE), PerCP-Cy5.5, allophycocyanin (APC), allophycocyanin-anthocyanin 7 (APC-Cy7), and phycoerythrin-anthocyanin 7 (PE-Cy7). […]
In this experiment, flow cytometry antibody staining was performed using blank control, single positive compensation, isotype control, and fluorescence minus one (FMO) control. […]

Cc1nnc(C(C)C)n1[C@@H]1C[C@H]2CC[C@@H](C1)N2CC[C@H](NC(=O)C1CCC(F)(F)CC1)c1ccsc1
weight of mice [1]: increased | clinical scores ([1]; EAE mice, score 0-5): lower | proportion and quantity of bone marrow hematopoietic stem cells [2]: significantly reduced
